Experimental data taken from patent US12115222B2, “Compositions and methods for improving the solubility of erectile dysfunction therapeutics” (Villya LLC, priority 2023, dated 2024).

Settings: Example 30

O=C(C1CCCCC1)N1CC(=O)N2CCc3ccccc3C2C1 (centres unmarked) [Praziquantel]
appearance in deionized water after the ethanol step (rubusoside:praziquantel 1:1 w/w): not soluble | appearance in deionized water after the ethanol step (rubusoside:praziquantel 2:1 w/w): hazy solution with some particles | appearance in deionized water after the ethanol step (rubusoside:praziquantel 3:1 w/w): slightly hazy solution with no discernable particles | appearance in water after the ethanol step (rubusoside:praziquantel 4:1 w/w): hazy solution | appearance in water after the ethanol step (rubusoside:praziquantel 5:1 w/w): slightly hazy solution with visible particles | appearance in water after the ethanol step (rubusoside:praziquantel 6:1 w/w): slightly hazy solution with no particles present | appearance in water after the ethanol step (rubusoside:praziquantel 7:1 w/w): readily soluble with no particles observed | appearance in deionized, distilled water after the ethanol step (rubusoside:praziquantel 9:1 w/w): readily soluble

Like-named read-outs stand apart in the source and are kept apart here.
